The structures appear in SMILES notation. pIC50: −log10 of the molar value.

Chains of the proteins cited; added tags and fusions are not shown. Residues count along the entry.
UniProt P06213, 28-758 limits assumed: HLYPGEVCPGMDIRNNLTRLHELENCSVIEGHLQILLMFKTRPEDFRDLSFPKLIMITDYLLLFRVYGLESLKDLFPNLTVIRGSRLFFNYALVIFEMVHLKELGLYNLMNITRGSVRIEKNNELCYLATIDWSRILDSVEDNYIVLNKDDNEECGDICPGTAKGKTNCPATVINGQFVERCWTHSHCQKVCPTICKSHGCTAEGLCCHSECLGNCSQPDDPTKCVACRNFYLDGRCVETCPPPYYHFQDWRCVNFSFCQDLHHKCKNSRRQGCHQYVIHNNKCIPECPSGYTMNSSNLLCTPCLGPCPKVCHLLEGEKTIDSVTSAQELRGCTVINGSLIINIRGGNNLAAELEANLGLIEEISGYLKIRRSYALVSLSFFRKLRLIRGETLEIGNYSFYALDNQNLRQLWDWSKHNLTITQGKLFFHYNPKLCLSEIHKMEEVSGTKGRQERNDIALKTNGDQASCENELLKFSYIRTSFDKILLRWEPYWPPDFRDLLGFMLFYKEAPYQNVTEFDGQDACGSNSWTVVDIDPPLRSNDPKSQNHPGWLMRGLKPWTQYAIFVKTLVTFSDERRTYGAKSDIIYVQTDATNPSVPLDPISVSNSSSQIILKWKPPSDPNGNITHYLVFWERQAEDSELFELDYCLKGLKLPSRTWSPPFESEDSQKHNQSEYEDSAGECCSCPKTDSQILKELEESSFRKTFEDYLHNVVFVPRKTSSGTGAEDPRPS
UniProt P06213, 763-1382 limits assumed: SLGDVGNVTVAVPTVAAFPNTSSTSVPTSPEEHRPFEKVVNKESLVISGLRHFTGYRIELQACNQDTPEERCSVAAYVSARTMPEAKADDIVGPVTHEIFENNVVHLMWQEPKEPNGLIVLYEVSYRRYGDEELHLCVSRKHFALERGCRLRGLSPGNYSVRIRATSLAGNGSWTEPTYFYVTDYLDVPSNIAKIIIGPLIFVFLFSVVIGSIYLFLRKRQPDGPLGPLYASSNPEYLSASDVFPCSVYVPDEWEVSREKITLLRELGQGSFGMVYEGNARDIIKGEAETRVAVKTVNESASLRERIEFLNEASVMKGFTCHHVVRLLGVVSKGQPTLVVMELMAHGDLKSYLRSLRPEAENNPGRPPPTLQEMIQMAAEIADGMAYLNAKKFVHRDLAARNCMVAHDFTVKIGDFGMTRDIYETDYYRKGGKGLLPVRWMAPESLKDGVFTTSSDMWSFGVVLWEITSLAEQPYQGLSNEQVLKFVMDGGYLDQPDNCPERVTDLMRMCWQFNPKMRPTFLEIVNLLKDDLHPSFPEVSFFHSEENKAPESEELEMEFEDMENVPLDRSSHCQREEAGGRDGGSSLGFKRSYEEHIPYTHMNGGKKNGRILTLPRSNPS

The target of this test is Insulin receptor (Homo sapiens, UniProt P06213).

In the case of `CC1(C)c2cc(C3CCN(C4COC4)CC3)ccc2C(=O)c2c1[nH]c1cc(C#N)ccc21`, the pIC50 (as a rule, the IC50 on a negative log10 scale, so that one unit is a factor of ten) was 6.51.

(Values after ChEMBL document CHEMBL1777813, “Discovery of novel tetracyclic compounds as anaplastic lymphoma kinase inhibitors” (Bioorg Med Chem Lett, 2011).)
